Assay results: US20100048465A1
Ends that are not written are not given here.

By UniProt entry, the sequences of proteins in these tests, tags left out. Where a name states a change or a piece, a line headed by the entry shows the natural chain unless it says otherwise.
UniProt Q01727: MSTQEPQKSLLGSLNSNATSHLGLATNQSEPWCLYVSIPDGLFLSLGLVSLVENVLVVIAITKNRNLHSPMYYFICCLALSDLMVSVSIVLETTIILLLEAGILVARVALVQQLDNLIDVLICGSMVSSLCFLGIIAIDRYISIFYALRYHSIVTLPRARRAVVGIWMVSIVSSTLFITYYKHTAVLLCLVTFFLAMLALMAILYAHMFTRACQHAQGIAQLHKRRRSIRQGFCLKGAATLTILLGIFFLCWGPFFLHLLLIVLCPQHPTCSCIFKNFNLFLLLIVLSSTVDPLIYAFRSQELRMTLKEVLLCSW

Biological target: melanocortin-1 receptor (MC1R) on murine macrophage-like RAW 264.7 cells (mouse (murine RAW 264.7 cells)) (UniProt Q01727)
Assay: cell-based or functional assay

TNF release by LPS-stimulated RAW 264.7 cells, LPS alone set at 100%; agouti 10^3 pM with MECO-1 10^-12 M (% of TNF release by LPS alone): 173 | TNF release by LPS-stimulated RAW 264.7 cells, LPS alone set at 100%; agouti 10^3 pM with α-MSH 10^-12 M (% of TNF release by LPS alone): 139 | TNF release by LPS-stimulated RAW 264.7 cells, LPS alone set at 100%; agouti 10^5 pM with MECO-1 10^-12 M (% of TNF release by LPS alone): 152 | TNF release by LPS-stimulated RAW 264.7 cells, LPS alone set at 100%; agouti 10^5 pM with α-MSH 10^-12 M (% of TNF release by LPS alone): 122
Binder: CVATRDSCKPPAPACCDPCASCQCRFFGSACTCRVLNPNC-NH2 (peptide, UniProt Q03288 92-131, looked up, ends and bridges not checked) [Mouse agouti (93-132)-NH2]
